Assay [1] has as its target T1, Protein kinase C beta type (Homo sapiens, UniProt P05771). The assay can be described thus: Inhibition of PKCbeta1 (unknown origin).
Assay [2] addresses T1, Protein kinase C beta type. The assay can be described thus: Inhibition of PKCbeta2 (unknown origin).

By UniProt entry, the sequences of proteins in these tests, tags left out.
UniProt P05771, whole entry: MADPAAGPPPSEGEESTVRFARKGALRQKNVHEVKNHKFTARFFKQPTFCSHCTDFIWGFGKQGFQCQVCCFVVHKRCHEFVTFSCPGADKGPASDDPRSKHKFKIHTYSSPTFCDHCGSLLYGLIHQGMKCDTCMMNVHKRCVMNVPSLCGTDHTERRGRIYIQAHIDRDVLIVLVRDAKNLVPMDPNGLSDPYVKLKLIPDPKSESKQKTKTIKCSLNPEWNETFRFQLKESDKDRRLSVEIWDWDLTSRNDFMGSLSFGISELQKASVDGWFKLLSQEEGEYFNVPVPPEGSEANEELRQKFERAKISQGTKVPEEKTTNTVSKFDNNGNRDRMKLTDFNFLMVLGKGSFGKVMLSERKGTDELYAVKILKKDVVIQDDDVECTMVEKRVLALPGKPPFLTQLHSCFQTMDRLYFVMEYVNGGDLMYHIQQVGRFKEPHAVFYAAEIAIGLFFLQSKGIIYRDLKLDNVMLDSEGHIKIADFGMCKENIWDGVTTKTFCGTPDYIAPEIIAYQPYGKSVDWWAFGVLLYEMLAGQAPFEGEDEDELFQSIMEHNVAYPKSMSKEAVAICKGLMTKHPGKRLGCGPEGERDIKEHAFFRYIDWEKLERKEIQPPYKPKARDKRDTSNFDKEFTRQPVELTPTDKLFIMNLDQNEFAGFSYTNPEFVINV

pIC50: −log10 of the molar value.

One may read the pIC50 as the IC50 on a negative log10 scale, so that one unit is a factor of ten. High values mean a small IC50, low ones a large IC50. `CN1CCN(c2nc(C3=C(c4c[nH]c5ccccc45)C(=O)NC3=O)c3ccccc3n2)CC1` [SOTRASTAURIN]: the results for the pIC50 in assay [1] and in assay [2] were 8.13 and 7.90, respectively.

Values taken from ChEMBL document CHEMBL5537172 (J Med Chem, 2024).
